Test [1] concerns the target anti-BACE1 hIgG1 Q311A / M428L / N434Y (human). Nature of the test: SPR. In general terms: In SPR one partner is held on a chip, and binding of the other changes the refractive index at the surface.
The target of test [2] is anti-BACE1 hIgG1 T18 (Q311A / M428L / N434Y) (human). As to the kind of experiment: SPR.

Protein sequences, listed by entry. Tags and fused reporters are not part of them. Residues count along the entry.
UniProt P55899, 24-365: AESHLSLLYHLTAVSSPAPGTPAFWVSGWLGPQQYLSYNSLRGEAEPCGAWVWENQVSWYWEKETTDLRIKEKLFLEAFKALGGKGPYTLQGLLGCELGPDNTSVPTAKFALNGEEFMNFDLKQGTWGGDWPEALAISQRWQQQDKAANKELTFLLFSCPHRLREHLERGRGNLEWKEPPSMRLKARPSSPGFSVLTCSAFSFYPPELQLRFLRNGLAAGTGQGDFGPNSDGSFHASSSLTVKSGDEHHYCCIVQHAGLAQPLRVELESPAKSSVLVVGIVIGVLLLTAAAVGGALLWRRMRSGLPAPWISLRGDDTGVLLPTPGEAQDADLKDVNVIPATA

In general, Kd refers to the constant that tells how readily two partners part at equilibrium. High values mean a looser complex, low ones a tighter complex. Take “human neonatal Fc receptor (hFcRn) (from UniProt P55899 24-365; P61769 21-119)”: the Kd in test [1] and in test [2] was 159 nM each time.

These data come from article PMC12049489.
